One assay addresses T1, CD48_DNA809504 (human, UniProt P09326).
T1 construct: extracellular domain
T1 sequence (extracellular domain construct of the screen, looked up): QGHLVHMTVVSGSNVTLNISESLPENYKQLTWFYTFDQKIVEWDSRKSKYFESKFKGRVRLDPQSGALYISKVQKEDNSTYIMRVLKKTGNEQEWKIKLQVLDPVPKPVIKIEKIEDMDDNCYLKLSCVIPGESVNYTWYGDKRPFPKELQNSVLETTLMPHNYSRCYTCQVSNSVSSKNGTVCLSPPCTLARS
Nature of the assay: extracellular interaction screen, normalized intensity; labelled dot against the clone named on the axis; which is query and which prey is not given; colour of the predicted class lost.

For a further assay, the target named is T2, FCGR2A_DNA809501 (human, UniProt P12318).
T2 construct: extracellular domain
T2 sequence (extracellular domain construct of the screen, looked up): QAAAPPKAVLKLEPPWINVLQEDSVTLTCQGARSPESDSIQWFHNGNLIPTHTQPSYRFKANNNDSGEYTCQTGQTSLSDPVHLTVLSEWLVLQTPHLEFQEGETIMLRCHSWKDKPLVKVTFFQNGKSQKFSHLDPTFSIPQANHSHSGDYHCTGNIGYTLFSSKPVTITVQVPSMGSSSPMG
Described as above.

B1: PD-1 extracellular domain (receptor, human, UniProt Q15116 25-170, looked up)
chain: LDSPDRPWNPPTFSPALLVVTEGDNATFTCSFSNTSESFVLNWYRMSPSNQTDKLAAFPEDRSQPGQDCRFRVTQLPNGRDFHMSVVRARRNDSGTYLCGAISLAPKAQIKESLRAELRVTERRAEVPTAHPSPSPRPAGQFQTLV
notes: extracellular domain; ECD construct; also called PDCD1; programmed cell death 1
B1: the binding result with CD48_DNA809504 and with FCGR2A_DNA809501 was “binds” throughout.

Source of the values: patent publication US20220119490A1 (Genentech, published 2022).
